Measurements: ChEMBL document CHEMBL1255197, “Surface plasmon resonance biosensor based fragment screening using acetylcholine binding protein identifies ligand efficiency hot spots (LE hot spots) by deconstruction of nicotinic acetylcholine receptor α7 ligands” (J Med Chem, 2010)

Amino acid sequences for entries named in this document (tags omitted).
UniProt P58154, whole entry: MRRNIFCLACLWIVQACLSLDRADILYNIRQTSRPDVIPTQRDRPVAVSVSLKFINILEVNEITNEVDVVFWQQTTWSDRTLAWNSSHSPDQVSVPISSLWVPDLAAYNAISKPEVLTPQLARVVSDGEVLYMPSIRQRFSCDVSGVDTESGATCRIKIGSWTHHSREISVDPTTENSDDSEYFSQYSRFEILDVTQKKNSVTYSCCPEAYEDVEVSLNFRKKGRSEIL

Target: Acetylcholine-binding protein (Lymnaea stagnalis, UniProt P58154)

Compound: CN1CCC[C@H]1c1cccnc1 [NICOTINE]
- Ki: 331 nM
